Experimental data reported in patent publication US6967237B2, “Ghrelin analogs” (priority 2000, dated 2005).

By UniProt entry, the sequences of proteins in these tests, tags left out.
UniProt Q92847, whole entry: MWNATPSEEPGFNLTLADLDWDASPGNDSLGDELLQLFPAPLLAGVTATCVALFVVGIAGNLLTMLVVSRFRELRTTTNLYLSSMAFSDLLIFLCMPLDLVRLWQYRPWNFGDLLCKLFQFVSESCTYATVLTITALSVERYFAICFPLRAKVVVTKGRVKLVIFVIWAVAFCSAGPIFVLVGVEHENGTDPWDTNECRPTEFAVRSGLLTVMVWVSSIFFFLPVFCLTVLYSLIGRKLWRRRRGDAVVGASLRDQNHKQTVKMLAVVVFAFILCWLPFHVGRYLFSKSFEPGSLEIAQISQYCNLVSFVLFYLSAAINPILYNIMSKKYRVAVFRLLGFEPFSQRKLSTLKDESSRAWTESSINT

Biological target: human GHSR1a (Homo sapiens, UniProt Q92847)
Experiment: Aequorin bioluminescence functional assay (intracellular calcium mobilization) in 293AEQ17/GHSR1a cells
Type: cell-based
Conditions: relative to ghrelin

activation at 10 µM: 89 ± 17%
SMILES: CCCCCCCC(=O)OC[C@H](NC(=O)[C@H](CO)NC(=O)CN)C(=O)N[C@@H](Cc1ccccc1)C(=O)N[C@@H](CC(C)C)C(=O)N[C@@H](CO)C(=O)N1CCC[C@H]1C(=O)N[C@@H](CCC(=O)O)C(=O)N[C@@H](Cc1c[nH]cn1)C(=O)N[C@@H](CCC(N)=O)C(N)=O [Compound 20, GSXFLSPEHQ-NH2]
